Literature values, collected in US7112654B2, “Ligand for vascular endothelial growth factor receptor” (Supratek Pharma Inc., priority 2001, dated 2006).

Sequences of proteins named here, by UniProt entry; tags and fusion partners are left off. Residues count along the entry.
UniProt P35968, 20-1356: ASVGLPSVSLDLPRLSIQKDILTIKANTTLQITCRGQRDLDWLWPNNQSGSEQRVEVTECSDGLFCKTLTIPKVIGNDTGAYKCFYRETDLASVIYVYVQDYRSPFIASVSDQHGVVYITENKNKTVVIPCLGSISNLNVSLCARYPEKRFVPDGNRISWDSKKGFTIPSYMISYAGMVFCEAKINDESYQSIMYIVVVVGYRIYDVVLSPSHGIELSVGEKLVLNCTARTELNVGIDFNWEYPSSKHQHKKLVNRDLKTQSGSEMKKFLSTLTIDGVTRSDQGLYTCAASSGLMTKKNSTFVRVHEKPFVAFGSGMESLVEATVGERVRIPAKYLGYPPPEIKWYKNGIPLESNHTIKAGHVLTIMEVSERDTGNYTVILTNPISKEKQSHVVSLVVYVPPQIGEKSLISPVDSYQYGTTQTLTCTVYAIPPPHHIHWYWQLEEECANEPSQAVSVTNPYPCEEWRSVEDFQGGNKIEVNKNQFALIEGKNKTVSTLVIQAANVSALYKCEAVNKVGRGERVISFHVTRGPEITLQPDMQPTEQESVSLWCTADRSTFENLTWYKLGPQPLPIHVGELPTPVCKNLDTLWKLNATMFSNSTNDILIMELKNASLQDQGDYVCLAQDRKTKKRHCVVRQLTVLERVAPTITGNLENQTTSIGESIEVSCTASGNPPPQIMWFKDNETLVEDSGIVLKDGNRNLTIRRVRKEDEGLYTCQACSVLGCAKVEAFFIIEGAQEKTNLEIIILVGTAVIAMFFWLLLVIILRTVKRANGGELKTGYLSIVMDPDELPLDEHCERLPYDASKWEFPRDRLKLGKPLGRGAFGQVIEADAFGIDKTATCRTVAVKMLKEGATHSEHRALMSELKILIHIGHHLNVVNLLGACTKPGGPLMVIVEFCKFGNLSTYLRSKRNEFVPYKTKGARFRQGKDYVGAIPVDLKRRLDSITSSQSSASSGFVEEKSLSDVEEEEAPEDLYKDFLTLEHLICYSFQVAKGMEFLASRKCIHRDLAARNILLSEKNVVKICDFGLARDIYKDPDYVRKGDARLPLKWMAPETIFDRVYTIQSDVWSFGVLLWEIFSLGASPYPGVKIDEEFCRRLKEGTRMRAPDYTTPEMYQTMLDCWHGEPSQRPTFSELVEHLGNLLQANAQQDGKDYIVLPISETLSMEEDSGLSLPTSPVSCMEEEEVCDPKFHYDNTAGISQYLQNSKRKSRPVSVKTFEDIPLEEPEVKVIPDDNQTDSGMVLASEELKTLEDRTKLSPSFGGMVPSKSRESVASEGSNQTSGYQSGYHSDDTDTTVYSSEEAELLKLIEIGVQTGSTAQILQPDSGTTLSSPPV

Molecular target: KDR receptor (Homo sapiens, UniProt P35968)
Conditions: cited from earlier work

VEGF
Kd: 0.075 to 0.125 nM
